## Yeast mating assay B: variants of the scFv Ab-14

Source: Li et al. 2023 (doi:10.1038/s41467-023-39022-2), MIT Lincoln Laboratory and A-Alpha Bio; data file from the FLAb repository.

Binding partner: SARS-CoV-2 spike HR2 peptide, sequence PDVDLGDISGINAS.

The variants keep the light chain, the linker and the frameworks of Ab-14 (scFv order VH, the linker GGGGSGGGGSGGGGS, VL).
VH: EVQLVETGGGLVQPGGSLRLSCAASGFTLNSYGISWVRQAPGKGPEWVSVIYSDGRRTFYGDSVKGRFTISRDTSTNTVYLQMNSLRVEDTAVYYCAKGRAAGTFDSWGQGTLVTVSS
VL: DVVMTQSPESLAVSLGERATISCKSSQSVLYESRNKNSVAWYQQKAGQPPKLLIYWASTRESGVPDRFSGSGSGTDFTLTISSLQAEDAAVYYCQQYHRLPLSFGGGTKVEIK

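The parent was found by panning a naive human phage display library on the peptide. Designed CDR sequences, proposed from the first random library and measured here. Their group label is 14H_GP_Gibbs (GP: Gaussian process model; Gibbs: Gibbs sampling; a sequence that several methods proposed may carry one label only). The scFvs were displayed on barcoded MATa yeast, the peptide on MATalpha yeast. Binding brings cells together so that they mate, and sequencing counts the barcode pairs among the diploids. Read counts were normalised to the haploid input and turned into Kd by a linear fit to BCL2-family pairs of known affinity, for each replicate. The assay was run in six technical replicates.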

The parent's heavy chain CDRs are GFTLNSYGIS, VIYSDGRRTFYGDSVK, GRAAGTFDS; each variant's own CDRs replace them letter for letter.
The read-out is the apparent dissociation constant on a log10 scale (nM): the lower, the stronger.
Averages over replicates are reported, and they cover detected replicates only.
"nd" means that the variant was in the library but no mating with the target was seen in that replicate; the authors take this as a sign of poor binding, and no number exists.
The range of this assay differs from that of the first round, and the authors advise against merging the two.

CDR-H1	CDR-H2	CDR-H3	log10 Kd, replicates	mean log10 Kd (nM)	signal with controls
GFSLNSYGIS	VIYADGRRTFYGDSVK	GTAAGTFDK	-0.23 / 0.13 / -0.57 / -0.87 / -0.33 / -0.26	-0.36	1/18 (1.57)
GFDLNSYGIS	VIYSDGRRTFYADPVK	GKTAGTFDS	-0.12 / -0.11 / -0.36 / -0.45 / 0.54 / 0.13	-0.06	1/18 (2.63)
GFTLNSYGIS	VIYSDGRRTFYADDVK	GRVAGTFDK	1.05 / 3.07 / 3.21 / 1.52 / 2.07 / 0.98	1.98	0/18
GFNLNSYGIS	VIYSDGRRTFYGDQVK	GKLAGTFDS	nd / nd / nd / 1.56 / 0.83 / nd	1.20	0/18
MFSLNSYGIS	VIYADGRRTFYGDSVK	GNAAGTFDS	0.83 / 0.15 / 1.28 / 1.16 / 0.61 / 1.05	0.85	0/18
GFTLNEYGIS	VIYSDGQRTFYGDDVK	GRTAGTFDS	0.23 / 0.25 / 0.06 / 0.20 / 0.20 / 0.62	0.26	0/18
GFTLESYGIS	VIYSDGQRTFYADDVK	GRAAGTFDK	0.51 / 1.16 / 0.91 / 1.17 / 1.00 / 1.23	1.00	1/18 (2.63)
YFDLNMYGIS	VIYSDGRRTFYGDSVK	GRTAGTFDS	nd / 0.99 / nd / 0.81 / nd / 0.67	0.83	0/18
GFFLNEYGIS	VIYSDGRRTFYGDSVK	GQAAGTFDT	0.83 / 1.03 / 1.21 / 1.32 / 1.37 / 2.23	1.33	0/18
KFDLNEYGIS	VIYSDGRRTMYGDSVK	GRTAGTFDS	-0.40 / 0.83 / -0.15 / -0.26 / 0.24 / 0.06	0.05	0/18
GFELNMYGIS	VIYSDGRRTFYADSVK	GTAAGTFDS	0.09 / -0.03 / 0.34 / 0.35 / 0.27 / 0.03	0.18	0/18
GFTLNSYGIS	VIYSDGMRTFYGDDVK	GRTAGTFDS	nd / 2.09 / nd / 1.19 / 1.39 / 2.11	1.70	0/18
GFNLNSYGIS	VIYSDGRRTFYVDDVK	GSEAGTFDS	-0.07 / 0.02 / -0.17 / -0.03 / -0.18 / -0.15	-0.10	0/18
GFVLNEYGIS	VIYSDGRRTFYQDSVK	GKAAGTFDS	1.68 / 0.69 / 0.97 / 1.08 / 1.14 / 0.52	1.01	0/18
GFELNMYGIS	VIYSDGRRTFYIDSVK	GKAAGTFDS	1.62 / 1.69 / 1.14 / 2.11 / 2.42 / 2.86	1.97	0/18
GFGLNSYGIS	VIYSDGRRTFYGDSVK	GRTAGTFDT	0.96 / 0.97 / 1.79 / 1.18 / 0.53 / 0.73	1.03	0/18
GFQLNSYGIS	VIYSDGRRTFYADSVK	GRVAGTFDQ	0.67 / 0.54 / 0.18 / 0.58 / 0.53 / 0.99	0.58	0/18
KFELNSYGIS	VIYSDGRRTFYADSVK	GRLAGTFDS	nd / 1.83 / 2.03 / 2.39 / 1.29 / 1.17	1.74	0/18
KFGLNEYGIS	VIYSDGRRTFYIDSVK	GRTAGTFDS	1.52 / 2.98 / nd / 2.00 / nd / 2.30	2.20	0/18
GFELNSYGIS	VIYSDGRRTFYGDSVK	GWVAGTFDK	1.00 / 1.17 / 0.52 / 0.77 / 0.49 / 0.36	0.72	1/18 (1.86)
GFHLNSYGIS	VIYSDGRRTFYGDSVK	GNEAGTFDT	-0.01 / 0.14 / 0.04 / -0.17 / -0.03 / 0.03	0.00	0/18
GFGLNSYGIS	VIYSDGRRTFYADSVK	GHVAGTFDS	0.57 / 0.57 / 1.09 / -0.04 / 1.23 / 0.86	0.71	0/18
GFWLNMYGIS	VIYSDGRRTFYGDSVK	GRQAGTFDS	nd / nd / 1.38 / nd / nd / nd	1.38	0/18
GFSLNTYGIS	VIYSDGRRTFYGDSVK	GKVAGTFDS	1.07 / 0.44 / 0.47 / 0.49 / 0.70 / 0.92	0.68	1/18 (3.37)
KFNLNSYGIS	VIYSDGRRTFYGDSVK	GKNAGTFDS	nd / nd / nd / nd / 3.02 / nd	3.02	0/18
GFKLNSYGIS	VIYSDGRRTFYGDSVK	GKNAGTFDS	nd / 1.89 / nd / 2.53 / nd / nd	2.21	0/18
GFHLNSYGIS	VIYSDGRRTFYSDSVK	GRQAGTFDS	nd / 1.07 / 1.38 / 1.58 / -0.33 / 1.53	1.05	1/18 (1.08)
GFTLNSYGIS	VIYSDGRRTFYGDPVK	GKTAGTFDT	1.43 / 1.76 / nd / nd / 2.56 / 1.47	1.80	0/18
GFSLNSYGIS	VIYSDGRRTFYIDSVK	GHAAGTFDN	2.72 / 2.30 / nd / 2.70 / nd / nd	2.57	0/18
GFDLNSYGIS	VIYSDGRRTFYGDSVK	GKIAGTFDT	0.18 / 0.01 / 0.79 / 0.55 / 0.15 / 0.54	0.37	0/18
GFGLNSYGIS	VIYSDGRRTFYHDEVK	GRTAGTFDS	2.04 / nd / 0.79 / nd / nd / nd	1.41	0/18
GFTLNSYGIS	VIYSDGRRTFYIDSVK	GGAAGTFDT	0.81 / nd / 0.91 / 1.51 / 2.02 / 1.83	1.42	0/18

The opening 2 entries, copied out:

{"CDR-H1": "GFSLNSYGIS", "CDR-H2": "VIYADGRRTFYGDSVK", "CDR-H3": "GTAAGTFDK", "log10 Kd, replicates": "-0.23 / 0.13 / -0.57 / -0.87 / -0.33 / -0.26", "mean log10 Kd (nM)": "-0.36", "signal with controls": "1/18 (1.57)"}
{"CDR-H1": "GFDLNSYGIS", "CDR-H2": "VIYSDGRRTFYADPVK", "CDR-H3": "GKTAGTFDS", "log10 Kd, replicates": "-0.12 / -0.11 / -0.36 / -0.45 / 0.54 / 0.13", "mean log10 Kd (nM)": "-0.06", "signal with controls": "1/18 (2.63)"}

Empty control strains, which show no peptide, gave a signal in 1% of pairings with all heavy chain designs; the median was 2.08 and 95% of these signals were weaker than 0.84. No background was subtracted. For each scFv, signals with the empty controls are counted beside the result, with their mean in brackets.
The parent sequence was in this pool as ten entries: three were never detected, three once, and four in most replicates, with averages from 0.34 to 2.37.
In the paper, a design with two or fewer of six values counts as a poor binder.